This note sets out measurements from patent US20110160081A1, “FUNCTIONAL COMPLEMENTATION ASSAY FOR DEFINED GPCR OLIGOMERS” (priority 2008, published 2011).

Chains of the proteins cited; added tags and fusions are not shown. Lines headed by an entry give the natural chain unless they say otherwise; changes in a name come on top. A line that says so, or that is headed by a name, gives the form on record, which may keep a tag or linker. Residues count along the entry.
UniProt P32300, with tags, fused parts or gaps: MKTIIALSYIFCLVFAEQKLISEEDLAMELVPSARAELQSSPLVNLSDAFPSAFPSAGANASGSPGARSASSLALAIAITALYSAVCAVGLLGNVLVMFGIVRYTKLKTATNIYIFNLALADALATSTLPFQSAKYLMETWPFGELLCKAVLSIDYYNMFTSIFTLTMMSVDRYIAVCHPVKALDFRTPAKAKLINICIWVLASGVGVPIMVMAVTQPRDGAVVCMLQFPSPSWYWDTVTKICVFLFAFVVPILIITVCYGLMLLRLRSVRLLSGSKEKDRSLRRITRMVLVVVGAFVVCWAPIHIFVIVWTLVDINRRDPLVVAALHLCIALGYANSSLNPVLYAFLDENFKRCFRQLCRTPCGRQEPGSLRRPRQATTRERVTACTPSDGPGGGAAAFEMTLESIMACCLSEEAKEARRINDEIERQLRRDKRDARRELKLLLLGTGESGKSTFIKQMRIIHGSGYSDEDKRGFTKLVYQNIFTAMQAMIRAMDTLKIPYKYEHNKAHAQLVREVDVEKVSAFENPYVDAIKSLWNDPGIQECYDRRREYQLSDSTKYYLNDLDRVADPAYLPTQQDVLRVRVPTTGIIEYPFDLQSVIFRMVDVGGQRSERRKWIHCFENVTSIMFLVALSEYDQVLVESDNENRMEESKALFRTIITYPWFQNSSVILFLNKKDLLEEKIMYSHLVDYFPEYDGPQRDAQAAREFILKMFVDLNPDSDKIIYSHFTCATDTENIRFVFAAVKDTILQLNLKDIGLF
UniProt P14416, 1-414 isoform P14416-2: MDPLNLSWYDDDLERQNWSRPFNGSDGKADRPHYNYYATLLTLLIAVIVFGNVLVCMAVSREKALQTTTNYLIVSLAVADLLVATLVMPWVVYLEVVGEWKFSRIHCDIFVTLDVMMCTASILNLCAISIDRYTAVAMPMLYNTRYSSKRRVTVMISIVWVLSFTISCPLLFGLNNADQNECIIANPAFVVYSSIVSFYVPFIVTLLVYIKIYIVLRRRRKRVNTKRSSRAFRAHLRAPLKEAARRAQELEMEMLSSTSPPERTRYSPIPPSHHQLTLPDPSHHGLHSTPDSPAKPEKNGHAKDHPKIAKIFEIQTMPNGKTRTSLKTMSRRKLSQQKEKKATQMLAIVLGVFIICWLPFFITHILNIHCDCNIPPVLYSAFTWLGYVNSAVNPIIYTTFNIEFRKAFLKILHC

One experiment deals with T1, DOR-Gqi5 (Mus musculus, UniProt P32300).
T1 construct: signal peptide (N); expressed in transfected cells; host or cells: AEQ cells (Flp-in T-rex 293 with aequorin)
In kind it is cell-based.

A further experiment deals with D2R and DOR-Gqi5 (UniProt P14416+P32300). The experiment is described as follows: Aequorin assay in cells stably coexpressing D2R and DOR-Gqi5.

DPDPE: at DOR-Gqi5, the “activation of DOR-Gqi5” value is on record as “about 10%” and the “signaling at DOR-Gqi5” value is listed as “signals effectively”. Moreover, the “enhancement of the potency of quinpirole” value on D2R and DOR-Gqi5 stood at 10 fold.
